Results on 1 molecule are retold here after ChEMBL document CHEMBL4431312, “Development of an Orally Available and Central Nervous System (CNS) Penetrant Toxoplasma gondii Calcium-Dependent Protein Kinase 1 (TgCDPK1) Inhibitor with Minimal Human Ether-a-go-go-Related Gene (hERG) Activity for the Treatment of Toxoplasmosis” (J Med Chem, 2016).

The target in this assay is T1, Calmodulin-domain protein kinase 1 (Toxoplasma gondii, UniProt Q9BJF5).
T1 sequence (Q9BJF5 whole entry): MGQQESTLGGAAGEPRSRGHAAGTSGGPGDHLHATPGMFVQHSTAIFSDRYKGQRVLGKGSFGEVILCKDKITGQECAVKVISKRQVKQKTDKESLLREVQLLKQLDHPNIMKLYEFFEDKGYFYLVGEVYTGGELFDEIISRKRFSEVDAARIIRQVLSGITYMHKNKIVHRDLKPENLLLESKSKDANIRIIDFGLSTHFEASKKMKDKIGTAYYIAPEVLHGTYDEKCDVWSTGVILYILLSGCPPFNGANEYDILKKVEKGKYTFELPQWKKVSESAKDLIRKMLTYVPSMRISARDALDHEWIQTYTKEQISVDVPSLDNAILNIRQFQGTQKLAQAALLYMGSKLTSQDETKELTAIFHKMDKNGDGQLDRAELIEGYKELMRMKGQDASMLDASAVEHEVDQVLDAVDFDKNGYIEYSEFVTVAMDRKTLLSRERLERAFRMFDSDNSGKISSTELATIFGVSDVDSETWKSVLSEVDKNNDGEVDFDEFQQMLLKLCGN

For the molecule `COCCOc1ccc2cc(-c3nn(CC4CCN(C)CC4)c4ncnc(N)c34)ccc2c1`, the half-maximal inhibitory concentration (IC50) (in general, the concentration at which inhibition is half-maximal) worked out at 15 nM.
